The results in this text go back to PubChem BioAssay AID892 (National Center for Advancing Translational Sciences (NCATS), 2007).

Protein sequences, listed by entry. Tags and fused reporters are not part of them.
UniProt P38398, whole entry, looked up: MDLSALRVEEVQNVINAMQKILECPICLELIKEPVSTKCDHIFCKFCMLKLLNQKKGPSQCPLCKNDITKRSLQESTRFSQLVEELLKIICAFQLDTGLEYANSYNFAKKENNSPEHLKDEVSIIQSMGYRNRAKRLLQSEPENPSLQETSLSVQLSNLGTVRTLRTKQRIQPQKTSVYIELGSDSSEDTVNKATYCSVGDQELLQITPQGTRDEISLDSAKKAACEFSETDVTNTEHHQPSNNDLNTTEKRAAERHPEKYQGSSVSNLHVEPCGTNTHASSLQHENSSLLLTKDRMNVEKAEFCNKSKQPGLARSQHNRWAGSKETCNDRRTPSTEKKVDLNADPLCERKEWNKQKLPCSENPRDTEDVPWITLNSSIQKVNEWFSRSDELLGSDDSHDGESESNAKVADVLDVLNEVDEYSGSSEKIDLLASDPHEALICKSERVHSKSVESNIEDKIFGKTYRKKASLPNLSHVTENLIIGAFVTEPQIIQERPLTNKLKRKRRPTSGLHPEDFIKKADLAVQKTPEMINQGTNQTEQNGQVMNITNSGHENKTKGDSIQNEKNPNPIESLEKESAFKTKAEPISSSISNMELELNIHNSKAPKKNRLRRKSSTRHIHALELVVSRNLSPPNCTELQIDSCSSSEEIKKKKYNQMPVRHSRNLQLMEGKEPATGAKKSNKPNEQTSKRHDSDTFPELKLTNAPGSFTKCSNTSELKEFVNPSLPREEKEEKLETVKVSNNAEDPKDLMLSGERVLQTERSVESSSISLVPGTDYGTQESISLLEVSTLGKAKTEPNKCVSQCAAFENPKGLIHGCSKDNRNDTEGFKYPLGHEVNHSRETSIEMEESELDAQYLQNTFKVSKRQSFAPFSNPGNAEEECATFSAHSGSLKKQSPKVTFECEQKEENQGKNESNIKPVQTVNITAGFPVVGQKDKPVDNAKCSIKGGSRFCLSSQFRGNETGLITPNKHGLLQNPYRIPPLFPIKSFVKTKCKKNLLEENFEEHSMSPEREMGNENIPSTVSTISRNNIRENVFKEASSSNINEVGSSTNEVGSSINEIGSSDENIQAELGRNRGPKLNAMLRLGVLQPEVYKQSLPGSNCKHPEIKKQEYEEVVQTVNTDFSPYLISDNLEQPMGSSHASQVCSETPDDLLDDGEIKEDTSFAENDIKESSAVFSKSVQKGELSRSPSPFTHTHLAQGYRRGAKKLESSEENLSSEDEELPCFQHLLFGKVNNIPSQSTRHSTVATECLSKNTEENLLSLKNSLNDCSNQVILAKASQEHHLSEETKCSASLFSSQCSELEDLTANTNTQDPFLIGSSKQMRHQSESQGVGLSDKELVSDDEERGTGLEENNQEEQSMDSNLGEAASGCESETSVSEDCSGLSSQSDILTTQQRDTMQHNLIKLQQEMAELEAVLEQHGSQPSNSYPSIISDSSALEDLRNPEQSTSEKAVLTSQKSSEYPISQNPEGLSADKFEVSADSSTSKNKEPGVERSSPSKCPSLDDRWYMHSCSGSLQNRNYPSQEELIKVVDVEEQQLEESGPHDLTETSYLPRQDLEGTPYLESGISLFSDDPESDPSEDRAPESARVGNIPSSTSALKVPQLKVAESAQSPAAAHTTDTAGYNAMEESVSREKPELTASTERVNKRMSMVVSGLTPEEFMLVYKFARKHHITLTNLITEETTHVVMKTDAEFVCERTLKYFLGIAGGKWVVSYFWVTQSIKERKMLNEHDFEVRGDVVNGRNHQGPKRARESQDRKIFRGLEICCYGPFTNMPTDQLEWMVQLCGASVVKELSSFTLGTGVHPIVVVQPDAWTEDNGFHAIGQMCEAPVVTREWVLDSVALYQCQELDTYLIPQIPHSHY

The structures appear in SMILES notation. Several values for one entry are separate records, joined by “and”; a condition that tells them apart may be missing. Identical values can stand only once. This is a selection; strong and weak results do not stand in their true shares. Activity calls are given as the source filed them. Calls follow the shape of the dose curve; as a rule, active = well fitted inhibition curve with a large enough effect; inconclusive = small, poorly fitted or top-dose-only effect; inactive = no such curve, though single readings can be large or run the other way.

This test addresses Breast cancer type 1 susceptibility protein (Homo sapiens) (UniProt P38398). In words: qHTS Assay for Inhibitors of BRCT-Phosphoprotein Interaction (Red Fluorophore). As to conditions: BRCT-phosphopeptide binding, red fluorescence polarization. The method, then:
NIH Molecular Libraries Screening Centers Network [MLSCN]
NIH Chemical Genomics Center [NCGC]
PI Name: Natarajan, Amarnath; University of Texas
A complex of BRCT (C-terminal portion of BRCA1, MW ~35 kDa, His-tagged) and fluorescently labeled pBACH1 phosphorylated 10 aa peptide fragment of BACH1, a helicase implicated in DNA repair, is incubated with library members. Inhibitors of BRCT-pBACH1 binding are detected by a decrease in the fluorescence polarization (FP) of the fluorophore. In order to minimize the effect of fluorescence artifacts and to increase the overall robustness of the screen, the compound library members were incubated in separate reactions with rhodamine-labeled probe-protein complexes. Protein and labeled probes were supplied by Dr. Amarnath Natarajan, Department of Pharmacology and Toxicology, University of Texas Medical Branch Galveston, TX.
Assay Buffer: 16mM Na2HPO4, 4 mM NaH2PO4, 150 mM NaCl, 1 mM EDTA, 1 mM DTT, 0.02% NaN3, and 0.01% Tween 20 at pH 7.3.
Assay Controls: 100 nM TAMRA labeled decapeptide dispensed into columns 3 and 4 to generate negative control (full inhibition of
binding, -100 % activity). 100 nM labeled decapeptide/100 nM protein in columns 1, 2, 5 - 48. Titration of unlabeled decapeptide control (from 10 mM, then 1:2 dilution in duplicate) pin-transferred to column 2, rows 1 to 16. Column 1 is neutral.
Three uL of reagents were dispensed to 1536-well Greiner black solid-bottom plates. Compounds and controls (23 nL) were transferred via Kalypsys PinTool. The plates were incubated for 12 min at room temperature, and then read on ViewLux (Perkin-Elmer) High-throughput CCD imager using BODIPY for the rhodamine-labeled decapeptide probe polarization filter sets. During dispense, reagent bottles were kept submerged into 4 deg C water bath and all liquid lines were covered with aluminum foil to minimize probe and protein degradation. All screening operations were performed on a Kalypsys robotic system (Kalypsys, Inc., San Diego, CA) containing one RX-130 and two RX-90 anthropomorphic robotic arms. The timing and order of assay plates passing through the screening system were adjusted such that each compound library plate was assayed against the fluorescein- and rhodamine-labeled assay systems at immediately adjacent time points.
A general note: In qHTS, concentration-response curves come from the screen itself.

[1] abbreviates: at 76.9 µM (top of the series) unless noted.
% is scaled to controls: 0 for no effect and ±100 for the full control effect.

With `COC(=O)c1cc2c(s1)N=C(c1ccccc1)N(C)P2(=O)N1CCOCC1` (configuration not stated), the activity change, negative = inhibition under setting [1] was inactive: 0.571%.
Still for that read-out and setting: in the case of `O=P1(Nc2nc3ccc(Cl)cc3s2)COc2ccccc2O1` (configuration not stated) it was inactive: -0.0878%.
The same measure, in the same setting: in the case of `CN1CCC[C@H](OC(=O)C(c2ccccc2)c2ccccc2)C1` it was inactive: -0.228% [at 15.4 µM].
As for `C[C@@H](O)COc1ccc([As](=O)(O)O)cc1N`, under setting [1], the activity change, negative = inhibition is inactive: -0.0974% [at 15.4 µM].
Still for that read-out and setting: in the case of `O=P(Nc1nccs1)(c1ccccc1)c1ccccc1` it was inactive: -0.079%.
On the same count and under the same terms, the result for `c1nnnn1CCn1cnnn1` reads inactive: 0.243%; that for `O=C(OC1CN2CCC1CC2)c1cccc(Cl)c1` (configuration not stated), inactive: 0.859%; that for `[N-]=[N+]=Nc1ccc([As](=O)(O)O)cc1`, inactive: 0.0391% [at 15.4 µM].
On the same count and under the same terms, in the case of `Cc1cc([N+](=O)[O-])cc([N+](=O)[O-])c1O` it was inactive: -1.5%.
On to `CN(C(=O)Cc1ccccc1)[C@@H]1CC[C@@]2(CCCO2)C[C@H]1N1CCCC1`, for which the activity change, negative = inhibition under setting [1] was inactive: -1.5%.
Consider `O=C(CO)Nc1ccc([As](=O)(O)O)cc1`, for which the activity change, negative = inhibition under setting [1] is inactive: -0.493% [at 15.4 µM].
Still for that read-out and setting: in the case of `CCc1nc2c(n1)c1c(non1O)c1c2no[n+]1[O-]` it was inactive: 1.73%.
`Cc1c2non([O-])c-2c(C)[n+](=O)[n+]1[O-]`: under setting [1], the activity change, negative = inhibition is inactive: 1.76%.
Same read-out and setting: in the case of `NCC[C@@H](N)CSP(=O)(O)O` it was inactive: 1.97% [at 15.4 µM]; in that of `O=[N+]([O-])c1ccc(C[As](=O)(O)O)cc1`, inactive: 0.24% [at 15.4 µM]; in that of `[N-]=[N+]=NCC(O)CN=[N+]=[N-]` (configuration not stated), inactive: -0.461% [at 15.4 µM].
In the case of `C(Cc1nn[nH]n1)c1nn[nH]n1`, the activity change, negative = inhibition under setting [1] was inactive: 0.283% [at 15.4 µM].
With `CN(C(=O)Cc1ccc(Cl)c(Cl)c1)[C@H]1CCCC[C@@H]1N1CCCC1`, the activity change, negative = inhibition under setting [1] was inactive: 0.608% and inactive: 1.16% and inactive: -0.902%.
Same read-out and setting: the result for `[N-]=[N+]=NCC(N)=O` reads inactive: -0.447% [at 15.4 µM]; that for `O=[As]c1ccc(S(=O)(=O)NCCO)cc1` (configuration not stated), inactive: 0.893% [at 15.4 µM]; that for `O=C(OC1CN2CCC1CC2)C12CC3CC(CC(C3)C1)C2` (configuration not stated), inactive: -0.532%.
In the case of `NC(=O)Nc1cc([As](=O)(O)O)cc(I)c1O`, under setting [1], the activity change, negative = inhibition is inactive: 0.239% [at 15.4 µM].
Still for that read-out and setting: in the case of `COP1(=S)c2c(C)nn(CCC#N)c2N=C(c2ccc(F)cc2)N1C` (configuration not stated) it was inactive: -0.322%.
`O=C(O)[C@@H](O)c1ccc([As](=O)(O)O)cc1`: the activity change, negative = inhibition under setting [1] was inactive: 0.488% [at 15.4 µM].
On to `O=C(COc1ccccc1)OC1CN2CCC1CC2` (configuration not stated), for which the activity change, negative = inhibition under setting [1] is inactive: 0.492%.
On the same count and under the same terms, the result for `CN(N=O)C(=N)N[N+](=O)[O-]` reads inactive: -0.179%.
In the case of `O=P1(Nc2ncccn2)COc2ccccc2OC1`, under setting [1], the activity change, negative = inhibition was inactive: 0.762%.
As to `O=P1(Nc2ccc(Br)cn2)COc2ccccc2OC1`, the activity change, negative = inhibition under setting [1] is inactive: -1.15%.
The same measure, in the same setting: the result for `Cc1nn(-c2ccccc2)c2c1P(=O)(N1CCOCC1)N(C)C(c1ccccc1)=N2` (configuration not stated) reads inactive: -0.977%; that for `CN(C(=O)Cc1ccc(Cl)c(Cl)c1)[C@@H]1CCCC[C@H]1N1CCCC1`, inactive: 1.53% [middle of 4 runs]; that for `CN(CCCl)Cc1cc(Cl)c(NC2=NCCN2)c(Cl)c1`, inactive: -3.08%.
For `O=P1(Nc2ccccn2)COc2ccccc2OC1`, the activity change, negative = inhibition under setting [1] is inactive: 1.21%.
For `Clc1n[nH]nc1-c1nn[nH][15n]1`, under setting [1], the activity change, negative = inhibition was inactive: -1.17%.
On the same count and under the same terms, in the case of `O=C(CC(=O)c1ccccc1)O[C@H]1CN2CCC1CC2` it was inactive: -2.37% [at 15.4 µM].
Still for that read-out and setting: in the case of `NS(=O)(=O)Cc1ccc([As](=O)(O)O)cc1` it was inactive: -0.933% [at 15.4 µM]; in that of `CN(C(=O)Cc1ccc(Cl)c(Cl)c1)[C@@H]1CC[C@@]2(CCCO2)C[C@H]1N1CCCC1`, inactive: 2.35%.
On to `NC(=O)Nc1ccc([As](=O)(O)O)cc1`, for which the activity change, negative = inhibition is inactive: -0.182% (at 34.4 µM (top of the series)) and inactive: 1.13% (at 76.9 µM (top of the series)).
For `CCOP1(=S)c2c(C)nn(CCC#N)c2N=C(c2ccc(F)cc2)N1C` (configuration not stated), under setting [1], the activity change, negative = inhibition is inactive: -0.97%.
With `CCOP1(=S)c2c(C)nn(CCC#N)c2N=C(c2ccccc2F)N1C` (configuration not stated), the activity change, negative = inhibition under setting [1] is inactive: -2.1%.
Same read-out and setting: in the case of `O=P(Nc1nccs1)(c1ccccc1)c1nc2ccccc2s1` (configuration not stated) it was inactive: -1.28%; in that of `O=[As](O)(O)c1ccc([As](=O)(O)O)cc1`, inactive: -0.382% [at 15.4 µM].
